Assay results: BindingDB's records for 16116659 (University of Bristol, 2005)

Amino acid sequences for entries named in this document (tags omitted).
UniProt P45568, whole entry, looked up: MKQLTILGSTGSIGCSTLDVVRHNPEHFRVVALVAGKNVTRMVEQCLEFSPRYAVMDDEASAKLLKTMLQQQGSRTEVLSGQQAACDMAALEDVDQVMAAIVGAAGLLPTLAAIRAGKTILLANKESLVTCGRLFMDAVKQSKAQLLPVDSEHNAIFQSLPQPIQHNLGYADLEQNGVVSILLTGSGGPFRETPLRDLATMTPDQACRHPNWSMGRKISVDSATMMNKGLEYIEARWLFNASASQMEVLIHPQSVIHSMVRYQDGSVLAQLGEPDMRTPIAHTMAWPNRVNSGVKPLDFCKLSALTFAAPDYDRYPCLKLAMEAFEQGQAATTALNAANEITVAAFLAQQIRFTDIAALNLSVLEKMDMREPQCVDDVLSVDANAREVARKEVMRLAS

Molecular target: 1-deoxy-D-xylulose 5-phosphate reductoisomerase (Escherichia coli (strain K12), UniProt P45568)
Assay: Inhibition Assay
Details: pH 8

CCP(=O)(O)O
Ki: 18 mM
